Laboratory results from PMC2442905 (2008).

The chains behind the UniProt entries cited, without tags or fusion partners. Where a name states a change or a piece, a line headed by the entry shows the natural chain unless it says otherwise.
UniProt Q12809: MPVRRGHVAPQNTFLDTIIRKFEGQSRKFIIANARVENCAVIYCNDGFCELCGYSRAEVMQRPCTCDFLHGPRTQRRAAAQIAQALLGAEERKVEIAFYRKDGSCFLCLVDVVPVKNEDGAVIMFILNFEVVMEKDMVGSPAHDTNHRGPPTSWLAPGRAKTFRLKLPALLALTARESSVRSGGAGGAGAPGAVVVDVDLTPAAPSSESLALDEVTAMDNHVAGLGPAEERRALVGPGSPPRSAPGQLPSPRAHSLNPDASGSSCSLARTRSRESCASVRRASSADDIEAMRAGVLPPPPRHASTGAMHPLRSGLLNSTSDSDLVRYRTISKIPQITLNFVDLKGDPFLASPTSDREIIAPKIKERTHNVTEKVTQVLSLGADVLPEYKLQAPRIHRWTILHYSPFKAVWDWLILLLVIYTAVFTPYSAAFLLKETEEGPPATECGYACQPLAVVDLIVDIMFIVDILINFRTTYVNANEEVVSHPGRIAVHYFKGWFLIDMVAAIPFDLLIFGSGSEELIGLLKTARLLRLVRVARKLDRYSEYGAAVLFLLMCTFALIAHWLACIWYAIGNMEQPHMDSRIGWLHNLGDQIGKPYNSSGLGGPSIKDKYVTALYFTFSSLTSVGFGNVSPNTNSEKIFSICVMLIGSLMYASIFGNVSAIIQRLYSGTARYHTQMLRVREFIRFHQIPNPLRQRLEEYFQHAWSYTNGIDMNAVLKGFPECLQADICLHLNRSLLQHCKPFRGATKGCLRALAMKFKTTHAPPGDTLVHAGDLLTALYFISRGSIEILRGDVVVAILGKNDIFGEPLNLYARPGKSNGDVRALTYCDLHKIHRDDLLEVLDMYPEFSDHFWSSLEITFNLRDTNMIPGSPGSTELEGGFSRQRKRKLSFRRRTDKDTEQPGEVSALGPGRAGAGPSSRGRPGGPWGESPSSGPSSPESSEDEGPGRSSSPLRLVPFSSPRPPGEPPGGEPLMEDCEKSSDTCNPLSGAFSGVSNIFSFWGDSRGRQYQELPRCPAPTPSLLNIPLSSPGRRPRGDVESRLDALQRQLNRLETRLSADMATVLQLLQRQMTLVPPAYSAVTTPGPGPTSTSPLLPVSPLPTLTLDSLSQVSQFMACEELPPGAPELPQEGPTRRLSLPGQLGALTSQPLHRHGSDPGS

Molecular target: hERG potassium channels stably expressed in CHO-K1 cells (Homo sapiens, UniProt Q12809)
Conditions: pH 7.4

COc1cc(N)c(Cl)cc1C(=O)NC1CCN(CCCOc2ccc(F)cc2)CC1OC (stereo not shown) [Cisapride]
Free safety margin (hERG IC50/ free Cmax): 28
